Experimental findings from PubChem BioAssay AID1224863 (Southern Research Institute, 2016) are described below.

Chains of the proteins cited; added tags and fusions are not shown. A line that says so, or that is headed by a name, gives the form on record, which may keep a tag or linker.
UniProt P13569, with tags, fused parts or gaps F508del: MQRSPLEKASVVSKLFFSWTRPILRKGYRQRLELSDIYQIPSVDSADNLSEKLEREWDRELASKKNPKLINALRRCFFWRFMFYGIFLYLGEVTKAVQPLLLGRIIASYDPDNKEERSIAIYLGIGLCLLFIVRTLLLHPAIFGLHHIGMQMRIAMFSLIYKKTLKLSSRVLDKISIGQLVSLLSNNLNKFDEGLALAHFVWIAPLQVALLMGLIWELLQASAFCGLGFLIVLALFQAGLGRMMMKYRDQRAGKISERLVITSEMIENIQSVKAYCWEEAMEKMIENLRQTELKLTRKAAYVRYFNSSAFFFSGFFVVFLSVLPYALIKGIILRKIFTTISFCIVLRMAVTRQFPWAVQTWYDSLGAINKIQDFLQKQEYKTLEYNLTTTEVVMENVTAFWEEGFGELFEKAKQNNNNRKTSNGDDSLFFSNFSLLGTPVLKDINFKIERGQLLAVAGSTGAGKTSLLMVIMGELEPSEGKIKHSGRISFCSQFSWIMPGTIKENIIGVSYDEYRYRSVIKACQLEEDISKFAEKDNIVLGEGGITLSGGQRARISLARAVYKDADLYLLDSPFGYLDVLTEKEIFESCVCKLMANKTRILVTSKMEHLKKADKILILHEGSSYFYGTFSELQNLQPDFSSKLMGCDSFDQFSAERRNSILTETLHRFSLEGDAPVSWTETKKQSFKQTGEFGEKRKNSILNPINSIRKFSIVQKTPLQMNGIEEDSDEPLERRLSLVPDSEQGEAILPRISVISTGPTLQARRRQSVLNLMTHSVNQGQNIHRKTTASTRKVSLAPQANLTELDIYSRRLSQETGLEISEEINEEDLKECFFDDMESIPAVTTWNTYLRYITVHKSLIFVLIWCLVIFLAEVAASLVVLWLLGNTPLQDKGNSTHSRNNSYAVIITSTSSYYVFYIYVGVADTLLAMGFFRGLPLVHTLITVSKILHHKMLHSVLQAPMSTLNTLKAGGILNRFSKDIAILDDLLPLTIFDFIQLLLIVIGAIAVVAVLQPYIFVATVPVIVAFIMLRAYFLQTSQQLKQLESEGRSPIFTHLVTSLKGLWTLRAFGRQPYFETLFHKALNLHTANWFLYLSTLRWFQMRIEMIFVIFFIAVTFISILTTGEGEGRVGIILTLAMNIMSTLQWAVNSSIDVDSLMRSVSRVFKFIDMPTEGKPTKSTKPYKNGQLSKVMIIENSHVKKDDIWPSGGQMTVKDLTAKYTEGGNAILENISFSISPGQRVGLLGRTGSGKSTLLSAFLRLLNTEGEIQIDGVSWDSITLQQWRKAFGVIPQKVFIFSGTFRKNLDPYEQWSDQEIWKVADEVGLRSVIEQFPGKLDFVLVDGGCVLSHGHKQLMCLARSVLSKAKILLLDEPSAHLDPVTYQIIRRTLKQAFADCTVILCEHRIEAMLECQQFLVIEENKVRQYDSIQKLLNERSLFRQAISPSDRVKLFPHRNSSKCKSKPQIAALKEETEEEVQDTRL

The list shows a part of the results, in another mix than the full data. Activity calls are given as the source filed them.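 Rule for the calls: active = highest signal at least 8 times that of the reference protease inhibitor control at some dose; inactive = the rest.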

For this assay, the target named is Cystic fibrosis transmembrane conductance regulator (Homo sapiens) (UniProt P13569). Description: compounds raising F508del-CFTR protein level – cell-based, HeLa F508del-CFTR, immunofluorescence, viability, primary screen (AID 1224863). To be noted: immunofluorescence total CFTR, 24 h, library dosed in µM.
For the compound `CN(C)CCS`, the call was inactive.
The entry for `OCCSCCO` is “inactive”.
In the case of `C/C1=C2N=C(/C=C3N=C(/C(C)=C4\[N-]C([C@H](CC(N)=O)[C@@]4(C)CCC(=O)NCC(C)OP(=O)([O-])O[C@@H]4[C@@H](CO)OC(n5cnc6cc(C)c(C)cc65)[C@@H]4O)C4(C)N=C1C(CCC(N)=O)C4(C)CC(N)=O)C(CCC(N)=O)C\3(C)C)C(CCC(N)=O)C/2(C)CC(N)=O.[C-]#N.[Co+3]` (some centres undefined), the outcome was inactive.
Turning to `C/C1=C2N=C(/C=C3N=C(/C(C)=C4\[N-][C@@](C)([C@@H]5N=C1[C@](C)(CCC(=O)NC[C@@H](C)OP(=O)([O-])O[C@H]1[C@@H](O)[C@@H](n6cnc7cc(C)c(C)cc76)O[C@@H]1CO)[C@H]5CC(N)=O)[C@@](C)(CC(N)=O)[C@@H]4CCC(N)=O)[C@@](C)(CC(N)=O)[C@@H]\3CCC(N)=O)C(C)(C)[C@@H]/2CCC(N)=O.[C-]#N.[Co+3]`, the outcome was inactive.
